Measurements taken from publication PMC8131219 (Chemical research in toxicology, 2020).

Amino acid sequences for entries named in this document (tags omitted).
UniProt Q05940, whole entry: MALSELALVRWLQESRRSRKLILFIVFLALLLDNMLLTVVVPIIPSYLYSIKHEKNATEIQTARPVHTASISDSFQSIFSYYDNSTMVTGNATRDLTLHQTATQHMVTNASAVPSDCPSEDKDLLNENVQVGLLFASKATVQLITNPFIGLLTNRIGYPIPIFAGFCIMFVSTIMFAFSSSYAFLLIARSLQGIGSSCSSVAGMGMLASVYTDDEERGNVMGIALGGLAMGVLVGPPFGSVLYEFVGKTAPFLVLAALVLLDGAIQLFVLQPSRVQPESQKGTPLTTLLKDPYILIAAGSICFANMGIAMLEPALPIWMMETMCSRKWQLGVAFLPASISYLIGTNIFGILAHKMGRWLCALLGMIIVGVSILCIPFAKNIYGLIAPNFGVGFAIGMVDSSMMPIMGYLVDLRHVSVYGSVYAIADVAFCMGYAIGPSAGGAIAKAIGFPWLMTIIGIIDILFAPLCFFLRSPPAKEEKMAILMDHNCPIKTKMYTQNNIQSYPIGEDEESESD

Molecular target: human VMAT2 (Homo sapiens, UniProt Q05940)
Format: cell-based

With `COC(=O)[C@H]1[C@H]2C[C@@H]3c4[nH]c5cc(OC)ccc5c4CCN3C[C@H]2C[C@@H](OC(=O)c2cc(OC)c(OC)c(OC)c2)[C@@H]1OC` [reserpine] the “Concentration showing essentially complete / total inhibition of VMAT2” value was 0.1 µM.
